Results from patent publication US6617361B2, “Behavior chemotherapy” (Be Able, LLC, priority 1999, dated 2003).
Where a name gives a salt, the structure may show the parent alone.

System: Patient four
Experiment: Protocol and results with patient four (morbid obesity, cardiomyopathy)
Type: in vivo, human
Details: July 1997; combination Ionamin 30 mg + Zoloft 25 + Pondimin
Protocol: This person has been in the practice for several years. Their medical problems surround a cardiomyopathy with a low cardiac output state and heart failure. They also have a history of hypertension, hypothyroidism on therapy, and morbid obesity.
Medication alterations continued over the next several months with increasing Ionamin to 30 mg. Hytrin was added at 2 mg because of prostatic symptoms and in November Pondimin was added.
Adipex-P 37.5 one-half was added to their medications. […]

CN[C@H]1CC[C@@H](c2ccc(Cl)c(Cl)c2)c2ccccc21 [Zoloft, sertraline HCl]
body weight: 217 lb
